Patent US20150376286A1 (Amgen, published 2015)

Chains of the proteins cited; added tags and fusions are not shown. Chains listed by the source or under a name are the forms on record and can include a tag or linker. Residues count along the entry.
UniProt O60896, 24-148: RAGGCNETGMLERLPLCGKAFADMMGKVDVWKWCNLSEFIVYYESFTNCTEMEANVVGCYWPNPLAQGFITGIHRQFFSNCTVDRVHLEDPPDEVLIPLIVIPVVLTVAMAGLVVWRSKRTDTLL
UniProt O60894, 27-148 limits assumed: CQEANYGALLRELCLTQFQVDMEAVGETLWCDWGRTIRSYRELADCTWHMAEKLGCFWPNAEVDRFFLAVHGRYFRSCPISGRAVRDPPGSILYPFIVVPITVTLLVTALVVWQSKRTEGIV
UniProt O60895, 43-175: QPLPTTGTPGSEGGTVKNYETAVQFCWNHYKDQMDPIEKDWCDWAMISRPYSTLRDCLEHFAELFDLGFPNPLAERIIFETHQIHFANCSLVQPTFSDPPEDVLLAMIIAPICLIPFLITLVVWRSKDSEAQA
UniProt Q63118, 24-464 limits assumed, chain 1 of 2: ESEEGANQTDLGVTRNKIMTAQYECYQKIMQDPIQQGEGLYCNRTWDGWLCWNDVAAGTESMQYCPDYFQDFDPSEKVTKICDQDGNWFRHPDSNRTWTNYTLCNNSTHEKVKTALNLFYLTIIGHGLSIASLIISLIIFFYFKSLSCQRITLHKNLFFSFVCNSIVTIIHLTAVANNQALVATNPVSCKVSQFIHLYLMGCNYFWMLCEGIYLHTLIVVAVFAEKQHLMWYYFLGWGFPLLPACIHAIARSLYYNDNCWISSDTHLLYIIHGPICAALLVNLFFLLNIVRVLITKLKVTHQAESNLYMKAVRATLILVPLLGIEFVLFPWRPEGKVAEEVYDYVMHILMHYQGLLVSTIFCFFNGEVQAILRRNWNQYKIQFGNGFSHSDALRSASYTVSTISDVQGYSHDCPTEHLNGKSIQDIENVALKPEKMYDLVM
UniProt Q9JJ74, 27-148 limits assumed, chain 2 of 2: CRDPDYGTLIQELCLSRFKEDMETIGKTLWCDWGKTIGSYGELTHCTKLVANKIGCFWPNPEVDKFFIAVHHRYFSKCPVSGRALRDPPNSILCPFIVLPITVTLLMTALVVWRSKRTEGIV
UniProt P30988, 25-474, chain 1 of 2: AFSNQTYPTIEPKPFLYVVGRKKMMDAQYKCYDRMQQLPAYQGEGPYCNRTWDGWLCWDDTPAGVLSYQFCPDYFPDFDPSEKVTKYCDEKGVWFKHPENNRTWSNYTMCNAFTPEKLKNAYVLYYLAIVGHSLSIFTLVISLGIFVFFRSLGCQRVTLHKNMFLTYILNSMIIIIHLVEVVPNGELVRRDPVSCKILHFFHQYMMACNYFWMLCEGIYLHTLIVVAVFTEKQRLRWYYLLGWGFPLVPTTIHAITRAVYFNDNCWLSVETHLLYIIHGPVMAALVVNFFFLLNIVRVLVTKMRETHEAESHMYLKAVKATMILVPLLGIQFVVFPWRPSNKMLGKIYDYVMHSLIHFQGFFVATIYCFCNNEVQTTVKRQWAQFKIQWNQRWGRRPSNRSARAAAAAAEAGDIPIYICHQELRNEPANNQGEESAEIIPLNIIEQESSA
human amylin AMY1 receptor (hCTR + hRAMP1), one chain, as listed by the source, chain 2 of 2: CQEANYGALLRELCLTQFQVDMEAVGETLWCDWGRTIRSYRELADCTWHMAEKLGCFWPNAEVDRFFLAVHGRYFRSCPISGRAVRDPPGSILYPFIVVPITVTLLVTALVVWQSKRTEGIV

How the values were obtained:
[1] = target: human adrenomedullin receptor 2 (hCRLR + hRAMP3) (human, UniProt O60896, in part); assay: cell-based or functional assay
[2] = target: T1, human CGRP receptor (CRLR + RAMP1) (human, UniProt Q16602; O60894, in part); assay: cell-based or functional assay
[3] = target: T2, cynomolgus CGRP receptor (cynoCRLR + cynoRAMP1) (cynomolgus monkey); assay: cell-based or functional assay
T2 chain 1: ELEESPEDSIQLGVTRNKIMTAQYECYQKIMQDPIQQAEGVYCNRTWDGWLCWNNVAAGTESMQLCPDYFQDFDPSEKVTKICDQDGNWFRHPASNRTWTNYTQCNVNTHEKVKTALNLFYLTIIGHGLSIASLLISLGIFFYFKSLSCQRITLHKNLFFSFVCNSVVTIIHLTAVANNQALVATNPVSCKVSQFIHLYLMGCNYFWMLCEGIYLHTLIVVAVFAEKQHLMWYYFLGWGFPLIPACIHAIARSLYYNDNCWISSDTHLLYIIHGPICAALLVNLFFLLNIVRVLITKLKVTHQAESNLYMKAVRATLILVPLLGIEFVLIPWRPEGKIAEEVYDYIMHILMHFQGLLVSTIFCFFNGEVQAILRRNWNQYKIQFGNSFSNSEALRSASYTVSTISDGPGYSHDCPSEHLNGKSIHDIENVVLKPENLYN
T2 chain 2: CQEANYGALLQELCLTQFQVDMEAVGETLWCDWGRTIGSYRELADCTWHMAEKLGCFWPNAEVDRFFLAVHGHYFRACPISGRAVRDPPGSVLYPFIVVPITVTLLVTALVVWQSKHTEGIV

[4] = target: human adrenomedullin receptor 1 (hCRLR + hRAMP2) (human, UniProt O60895, in part); assay: cell-based or functional assay
[5] = target: rat CGRP receptor (rat, UniProt Q63118; Q9JJ74, in part); assay: cell-based or functional assay
[6] = target: human amylin AMY1 receptor (hCTR + hRAMP1) (human, UniProt P30988); assay: cell-based or functional assay
[7] = target: T1, human CGRP receptor (CRLR + RAMP1); assay: 125I-CGRP competition binding, HTB-10 cell membranes
Experimental: The plates were incubated at room temperature for 2 hours with shaking at 60 rpm, and then the contents of each well were filtered over 0.5% polyethyleneimine (PEI)-treated (for at least one hour) GF/C 96-well filter plates. The GF/C filter plates were washed six times with ice-cold 50 mM Tris, pH 7.5 and dried in an oven at 55° C. for 1 hour. The bottoms of the GF/C plates were then sealed. 40 μl Microscint™ 20 was added to each well, the tops of the GF/C plates were sealed with TopSeal™-A (a press-on adhesive sealing film), and the GF/C plates were counted with TopCount NXT (Packard). The data were analyzed using Prizm (GraphPad Software Inc.)

cAMP assay IC50 [1]: > 1000 nM
cAMP assay IC50 [2]: 4.93 nM
cAMP assay IC50 [3]: 3.85 nM
cAMP assay IC50 [4]: > 1000 nM
cAMP assay IC50 [5]: > 1000 nM
cAMP assay IC50 [6]: > 1000 nM
Ki [7]: 0.044 nM
B1: 11D11 (antibody, human IgG2, lambda, V domains shown)
VH: EVQLVESGGGLVKPGGSLRLSCAASGFTFGNAWMSWVRQAPGKGLEWVGRIKSKTDGGTTDYAAPVKGRFTISRDDSKNTLYLQMNSLKTEDTAVYFCTTDRTGYSISWSSYYYYYGMDVWGQGTTVTVSS
VL: QSVLTQPPSASGTPGQRVTISCSGSSSNIGSNYVYWYQQLPGAAPKLLIFRNNQRPSGVPDRFSGSKSGTSASLAISGLRSEDEADYYCAAWDDSLSGWVFGGGTKLTVLG
notes: also called 11D11.1

cAMP assay IC50 [1]: > 1000 nM
cAMP assay IC50 [2]: 4.56 nM
cAMP assay IC50 [3]: 5.07 nM
cAMP assay IC50 [4]: > 1000 nM
cAMP assay IC50 [5]: > 1000 nM
cAMP assay IC50 [6]: > 1000 nM
Ki [7]: 0.057 nM
B2: 11H9 (antibody, human IgG2, lambda, V domains shown)
VH: B1 VH with F97Y
VL: B1 VL
notes: also called 11H9.1

Changes are numbered by the printed parent chain. One block for each binder: values may come before it.
